Test results from US20100143352A1 (published 2010).

The chains behind the UniProt entries cited, without tags or fusion partners. Residues count along the entry.
UniProt Q9Y275, 82-285: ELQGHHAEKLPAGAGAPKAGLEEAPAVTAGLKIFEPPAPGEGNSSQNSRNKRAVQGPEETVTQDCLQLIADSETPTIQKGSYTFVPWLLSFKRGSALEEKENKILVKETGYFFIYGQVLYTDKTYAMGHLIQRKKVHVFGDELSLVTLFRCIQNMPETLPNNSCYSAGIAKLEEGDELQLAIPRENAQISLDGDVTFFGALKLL

Biological target: T1, BLyS82-285 (human BAFF residues 82-285) (human, UniProt Q9Y275 82-285)
T1 construct: Made in E. coli from pET15b with an N-terminal His-tag, which thrombin removed; Coated on ELISA plates and, in the phage IC50 assay, also used in solution; also called TALL-1
Experiment: competitive displacement ELISA on BLyS-coated plates; competitor biotinylated miniBR3; four-parameter fit

IC50: 19 nM
Binder: ECFDLLVRHWVPCGLLK [blys0095 (ECFDLLVRHWVPCGLLK)]
